{
  "source": "patent US9198909B1",
  "about": "“Materials and methods for inhibiting mamalian S-nitrosoglutathione reductase” (Indiana University Research and Technology Corporation, priority 2007, dated 2015)",
  "key": {"GSNOR•NADH complex": {"target": "GSNOR•NADH complex (Homo sapiens, UniProt P11766)", "test": "Fluorescence equilibrium binding to GSNOR•NADH complex", "conditions": "1.7 μM NADH, 2 μM GSNOR, 50 μM compound 8", "experimental": "Referring now to FIG. 2, (A) Changes in the fluorescence of NADH (curve a) upon sequential addition of GSNOR (curve b) and compound 8 (curve c). To a solution of 1.7 μM NADH were added 2 μM GSNOR and 50 μM compound 8 in sequence and the fluorescence of the solution measured each time (λexc=350 nm; λemm=375-550 nm); (B) Changes in the fluorescence of NADH (curve a) upon sequential addition of GSNOR (curve b), 12-HDDA (curve c) and compound 8 (curve d). To a solution of 1.7 μM NADH were added 2 μM GSNOR, 810 μM 12-HDDA and 50 μM compound 8 in sequence and the fluorescence measured each time (λexc=350 nm; λemm=375-550 nm); (C) Binding of compound 8 to GSNOR•NADH complex. The change in fluorescence of a 1.7 μM NADH and 2 μM GSNOR mixture (λexc=350 nm; λemm=455 nm) with increasing concentrations of compound 8 was fitted to a single site binding model (equation 1; see materials and methods) using the Graphpad Prizm 4. All of the fluorescence studies were conducted at room temperature in 50 mM potassium phosphate pH 7.5.\nReferring now to Table 3, inhibition experiments were performed at 25° C. in 50 mM potassium phosphate (pH 7.5) including 0.1 mM EDTA. A minimum of five concentrations of the varied substrate and three inhibitor concentrations were used for each experiment. […] The dissociation constant was measured at 25° C. in 50 mM potassium phosphate pH 7.5. […]"}, "GSNOR": {"target": "GSNOR (Homo sapiens, UniProt P11766)", "test": "Dead-end inhibition studies of GSNOR", "conditions": "pH 7.5, 25° C.", "experimental": "Referring now to Table 3, inhibition experiments were performed at 25° C. in 50 mM potassium phosphate (pH 7.5) including 0.1 mM EDTA. A minimum of five concentrations of the varied substrate and three inhibitor concentrations were used for each experiment. NADH and GSNO concentrations were held at 15 or 10 μM, respectively when present as a constant substrate in the assay. The Kis and Kii values are respectively the slope and intercept inhibition constants and are listed along with their associated standard errors. All data were fit to a competitive (C), noncompetitive (NC), or uncompetitive (UC) inhibition models. […] The KD value is the equilibrium dissociation constant of the inhibitor for binding to the GSNOR•NADH complex, obtained by measuring the changes in the fluorescence of GSNOR bound NADH with the addition of Inhibitor (λexc=350 nm; λemm^=455 nm). The dissociation constant was measured at 25° C. in 50 mM potassium phosphate pH 7.5. […]\nInhibition experiments with the GSNOR inhibitors were conducted at 25° C. in 3 ml of 50 mM potassium phosphate (pH 7.5) containing 0.1 mM EDTA. […] A minimum of three inhibitor concentrations were used in these assays and the rate of NADH and GSNO consumption was determined spectrophotometrically by following change in absorbance at 340 nm. […]"}, "RAW 264.7 cells": {"test_system": "RAW 264.7 cells", "test": "Nitroso species accumulation in RAW 264.7 cells (triiodide chemiluminescence)", "experimental": "Referring now to FIG. 3, briefly, RAW 264.7 cells were incubated with 500 μM GSNO alone (γ) or in presence of 33 μM Compound 6 (◯) or 7 (Δ) or 8 (▪). At indicated times or at 4 hr (in case of B), the cells were lysed and the lysate was analyzed for protein and nitroso species concentration by Bradford and chemiluminescence assay, respectively. For details, see Materials and methods. Data represents mean±SE (n=3−12).\nRAW 264.7 cells were cultured in DMEM medium supplemented with 10% FBS, 200 U/ml of penicillin and 200 μg/mL of streptomycin. The cells were incubated at 37° C. in an atmosphere containing 5% CO2 and 95% air. For the experiments, 1-2×10^6 cells were plated in six-well plates a day before the experiment. On the day of the assay the medium was replaced with 3 ml of fresh medium and the cells were treated with compounds for a predetermined length of time. Following the incubation period, the cells were washed three times with PBS and scraped off the plate in 250 μl of lysis buffer (50 mM potassium phosphate pH 7.0 containing 50 mM NEM and 1 mM EDTA). Cells were lysed by sonication using a micro tip probe (three pulses of 30% duty cycle; 2 output control on a Fisher Sonicator). Cell debris was pelleted by centrifugation (10 min at 16,000 g) and the cell lysate was analyzed for protein concentration using the Bio-Rad dye-binding protein assay. The concentration of nitroso compounds in the cell lysate was determined using the triiodide based chemiluminescence method using a Sievers 280 nitric oxide analyzer. Briefly, cell lysates were treated with 15% v/v of a sulfanilamide solution (5% w/v in 0.2 M HCl) and kept at room temperature for 5 min to remove nitrite. The triodide mixture was prepared fresh every day as described earlier and kept at 60° C. in the reaction vessel. […] The amount of s-nitrosothiols in the cell lysate was determined by treating initially passing the cell lysate through a microspin column and treating the eluate with 5 mM HgCl2 before determining the nitroso compound concentration using chemiluminescence. […]"}},
  "data": [
    {"smiles": "CCOc1ccc(N(CC)C(=O)Cc2c(C(=O)O)[nH]c3ccc(Cl)cc23)cc1", "values": [
      {"measurement": "effect on fluorescence of GSNOR bound NADH", "setting": "GSNOR•NADH complex", "value": "quenched the NADH fluorescence"},
      {"measurement": "Kis value relative to Kii value against varied NADH", "setting": "GSNOR", "value": "five fold higher"},
      {"measurement": "type of inhibition against varied NADH", "setting": "GSNOR; GSNO held at 10 μM", "value": "almost uncompetitive"},
      {"measurement": "increase in the levels of nitrosylated species versus GSNO alone", "setting": "RAW 264.7 cells; 500 μM GSNO + 33 μM compound", "value": "1.3-1.7 fold"},
      {"measurement": "difference in the levels of nitrosylated species versus GSNO alone", "setting": "RAW 264.7 cells; 500 μM GSNO + 33 μM compound, 6 hrs", "value": "insignificant difference"},
      {"measurement": "maximal levels of nitroso compounds compared with the other compounds", "setting": "RAW 264.7 cells; varied concentrations of compound", "value": "same extent"}
    ]}
  ]
}
